Results published in patent US20050170442.

Target: T1, Biotin-labeled fluorescent peptide CPRPFSVPP(S*)PDK-(5-FAM) (not fully specified)
T1 chain: CPRPFSVPPSPDK

B1: GSK3β, rHuman (protein)
chain: MSGRPRTTSFAESCKPVQQPSAFGSMKVSRDKDGSKVTTVVATPGQGPDRPQEVSYTDTKVIGNGSFGVVYQAKLCDSGELVAIKKVLQDKRFKNRELQIMRKLDHCNIVRLRYFFYSSGEKKDEVYLNLVLDYVPETVYRVARHYSRAKQTLPVIYVKLYMYQLFRSLAYIHSFGICHRDIKPQNLLLDPDTAVLKLCDFGSAKQLVRGEPNVSYICSRYYRAPELIFGATDYTSSIDVWSAGCVLAELLLGQPIFPGDSGVDQLVEIIKVLGTPTREQIREMNPNYTEFKFPQIKAHPWTKVFRPRTPPEAIALCSRLLEYTPTARLTPLEACAHSFFDELRDPNVKLPNGRDTPALFNFTTQELSSNPPLATILIPPHARIQAAASTPTNATAASDANTGDRGQTNNAASASASNST
- amount of enzyme/well needed for roughly 50% maximal signal at 10 µM ATP/well (TR-FRET enzyme titration): 0.209 µg/ml for GSK3β
